Data reported in patent US8329720B1, “Opioid salts and formulations exhibiting abuse deterrent and anti-dose dumping properties” (Pisgah Laboratories, Inc., priority 2007, dated 2012).

Test: Intrinsic dissolution profile as a function of pH
Format: physicochemical
Conditions: 0.1N HCl (pH 1), pH 4.5 acetate buffer, pH 6.8 phosphate buffer, water; 37° C.; result in words
Description: The opioid salts of the present invention were tested to determine their dissolution profile as a function of pH, and as a function of ethanol concentration in acidic media (dose dumping). To perform these experiments the buffered dissolution media and acidic ethanol solutions were prepared as identified herein, “Preparation of Solutions”. The test procedure was derived from the procedures cited in the United States Pharmacopeia and National Formulary (USP), numbers <1087> and <711>. The dose dumping procedure was adopted from the United States Food and Drug Administration's guidance regarding the dose dumping of oxymorphone. The sampling interval and regimen was defined and each sample analyzed by HPLC. Results from the HPLC analyses were plotted as a function of time and dissolution condition (FIG. 37 through FIG. 97 inclusive, and FIGS. 102-105, 109, 110, 114 and 115). This procedure was used to obtain the pH and dose dumping dissolution profiles disclosed herein. […] All activities within the procedure were conducted and executed for each of the compounds reported herein. Unless otherwise stated HPLC measurements were done and reported at ambient temperature and dissolution testing was done nominally at 37° C. […]

Substance | pH dissolution profile
Hydromorphone Xinafoate | pH independent release profile
Morphine Xinafoate | extended release at pH 1, and independent release as the pH increases
